{"source": "patent US9303092B2", "about": "“Methamphetamine-like hapten compounds, linkers, carriers and compositions and uses thereof” (The Board of Trustees of the University of Arkansas, priority 2000, dated 2016)", "key": {"[1]": {"test": "(+)METH brain concentrations in overdose and mAb pretreatment models", "type": "in vivo, rat", "details": "1 mg/kg iv (+)METH dose without mAb", "protocol": "The overdose model was designed to mimic a drug abuser taking a high iv (+)METH dose and treated with (+)METH mAb in the emergency room. In this model, rats received 1 mg/kg (+)METH (iv) followed 30 min later by an anti-(+)METH mAb dose. The mAb pretreatment model was designed to mimic an abuser in drug treatment administered an anti-(+)METH mAb medication at the start of behavioral modification therapy who relapses to (+)METH use. In this model, rats were pretreated with anti-(+)METH mAb6H4 and received a 1 mg/kg iv (+)METH dose the following day. This dose (without mAb) produced about 2.5 hrs of locomotor effects. Rats (3/time point) were sacrificed at varied times after (+)METH administration to determine (+)METH brain concentrations."}, "[2]": {"test": "(+)-Methamphetamine and (+)-amphetamine pharmacokinetic studies in serum and brain with and without mAb6H4", "details": "for AUCbrain AUCserum ratio Treated / Molar Ratio of (+)-AMP to (+)-METH AUC Treated: mAb treated; for AUCbrain AUCserum ratio Control / T1/2λz Control / AUC38 min-[…] Control / Molar Ratio of (+)-AMP to (+)-METH AUC Control: without treatment; for T1/2λz Control: 1-mg/kg i.v. (+)-METH; for distribution half-life: two-compartment model"}}}
{"substance": "(+)-methamphetamine [(+)METH]", "values": [{"measurement": "duration of locomotor effects", "setting": "[1]", "result": "about 2.5 hrs"}, {"measurement": "AUCbrain AUCserum ratio Treated", "setting": "[2]; Brain row", "result": 0.02}, {"measurement": "AUCbrain AUCserum ratio Control", "setting": "[2]; Brain row", "result": 9.6}, {"measurement": "T1/2λz Control", "setting": "[2]; Brain", "result": 57, "unit": "min"}, {"measurement": "Molar Ratio of (+)-AMP to (+)-METH AUC Treated", "setting": "[2]; Brain", "result": 1.26}, {"measurement": "AUC38 min-[…] Control", "setting": "[2]; Brain", "result": 1182, "unit": "ng·h/g"}, {"measurement": "Molar Ratio of (+)-AMP to (+)-METH AUC Control", "setting": "[2]; Brain", "result": 0.49}, {"measurement": "AUCbrain AUCserum ratio Treated", "setting": "[2]; Serum row", "result": 1}, {"measurement": "AUCbrain AUCserum ratio Control", "setting": "[2]; Serum row", "result": 1}, {"measurement": "T1/2λz Control", "setting": "[2]; Serum", "result": 64.8, "unit": "min"}, {"measurement": "AUC38 min-[…] Treated", "setting": "[2]; Serum, 1-mol equivalent dose of mAb at 30 min", "result": "12,266 ng · h/ml"}, {"measurement": "Molar Ratio of (+)-AMP to (+)-METH AUC Treated", "setting": "[2]; Serum", "result": 0.01}, {"measurement": "AUC38 min-[…] Control", "setting": "[2]; Serum", "result": 123, "unit": "ng·h/mL"}, {"measurement": "Molar Ratio of (+)-AMP to (+)-METH AUC Control", "setting": "[2]; Serum", "result": 0.49}, {"measurement": "time of highest / apparent maximum concentrations in serum and brain", "setting": "[2]; after 1.0-mg/kg i.v. (+)-methamphetamine", "result": 1, "unit": "min"}, {"measurement": "distribution half-life", "setting": "[2]; brain", "result": 26, "unit": "min"}, {"measurement": "distribution half-life", "setting": "[2]; serum", "result": 1.7, "unit": "min"}]}
